Results: US6583175B2, “Alkylxanthates and use of alkylxanthates in the integrated pest management” (Council of Scientific & Industrial Research, priority 2001, dated 2003)
Read-outs that look alike come from different tables or passages of the source.

What was measured:
[1] = test system: Brine shrimp, Artemia salina; test: Brine shrimp bioassay (toxic activity); details: Artemia salina nauplii, 24 hours
Helicoverpa armigera = details: topical
Spodoptera litura [2] = details: topical
Spodoptera litura [3] = test: Antifeedant activity against late third instar of Spodoptera litura (leaf disk, oral feeding); type: in vivo
Aedes aegypti = test: Larvicidal activity against IV instar larvae of Aedes aegypti; type: in vivo; details: 24 hours

Methylene Bis(n-butylxanthate)
LC50 ± S.E. [1]: 34.65 ± 3.91 µg/mL

O,O-diethyl thiophospate phenethylxanthate
Adult emergence: Abnormal adults (Helicoverpa armigera; 25 μg/Insect): 7 | Adult emergence: Intermediates (Helicoverpa armigera; 25 μg/Insect): 5 | Adult emergence: Non emergence (Helicoverpa armigera; 25 μg/Insect): 9 | Adult emergence: Normal adults (Helicoverpa armigera; 25 μg/Insect): 15 | Larval mortality (%) (Helicoverpa armigera; 25 μg/Insect): 47% | Pupal Formation: Abnormal pupa (Helicoverpa armigera; 25 μg/Insect): 13 | Pupal Formation: Normal pupa (Helicoverpa armigera; 25 μg/Insect): 23 | Pupal Formation: Pupal Mortality (Helicoverpa armigera; 25 μg/Insect): 17 | Adult emergence: Intermediates (Helicoverpa armigera; 35 μg/Insect): 4 | Adult emergence: Non emergence (Helicoverpa armigera; 35 μg/Insect): 8 | Adult emergence: Normal adults (Helicoverpa armigera; 35 μg/Insect): 9 | Larval mortality (%) (Helicoverpa armigera; 35 μg/Insect): 62% | Pupal Formation: Abnormal pupa (Helicoverpa armigera; 35 μg/Insect): 15 | Pupal Formation: Normal pupa (Helicoverpa armigera; 35 μg/Insect): 12 | Pupal Formation: Pupal Mortality (Helicoverpa armigera; 35 μg/Insect): 11 | Adult emergence: Abnormal adults (Helicoverpa armigera; 50 μg/Insect): 7 | Adult emergence: Intermediates (Helicoverpa armigera; 50 μg/Insect): 2 | Adult emergence: Non emergence (Helicoverpa armigera; 50 μg/Insect): 2 | Adult emergence: Normal adults (Helicoverpa armigera; 50 μg/Insect): 5 | Larval mortality (%) (Helicoverpa armigera; 50 μg/Insect): 71% | Pupal Formation: Abnormal pupa (Helicoverpa armigera; 50 μg/Insect): 11 | Pupal Formation: Normal pupa (Helicoverpa armigera; 50 μg/Insect): 5 | Pupal Formation: Pupal Mortality (Helicoverpa armigera; 50 μg/Insect): 9 | Adult emergence: Abnormal adults (Helicoverpa armigera; 75 μg/Insect): 1 | Adult emergence: Intermediates (Helicoverpa armigera; 75 μg/Insect): 0 | Adult emergence: Non emergence (Helicoverpa armigera; 75 μg/Insect): 3 | Adult emergence: Normal adults (Helicoverpa armigera; 75 μg/Insect): 4 | Larval mortality (%) (Helicoverpa armigera; 75 μg/Insect): 85% | Pupal Formation: Abnormal pupa (Helicoverpa armigera; 75 μg/Insect): 5 | Pupal Formation: Normal pupa (Helicoverpa armigera; 75 μg/Insect): 3 | Pupal Formation: Pupal Mortality (Helicoverpa armigera; 75 μg/Insect): 7 | Adult emergence: Abnormal adults (Helicoverpa armigera; 100 μg/Insect): 1 | Adult emergence: Intermediates (Helicoverpa armigera; 100 μg/Insect): 0 | Adult emergence: Non emergence (Helicoverpa armigera; 100 μg/Insect): 5 | Adult emergence: Normal adults (Helicoverpa armigera; 100 μg/Insect): 0 | Larval mortality (%) (Helicoverpa armigera; 100 μg/Insect): 92% | Pupal Formation: Abnormal pupa (Helicoverpa armigera; 100 μg/Insect): 6 | Pupal Formation: Normal pupa (Helicoverpa armigera; 100 μg/Insect): 0 | Pupal Formation: Pupal Mortality (Helicoverpa armigera; 100 μg/Insect): 3

m-Fluorobenzyl isobutylxanthate
Adult emergence: Abnormal adults (Spodoptera litura [2]; 5 μg/Insect): 32 | Adult emergence: Intermediates (Spodoptera litura [2]; 5 μg/Insect): 2 | Adult emergence: Non-emergence (Spodoptera litura [2]; 5 μg/Insect): 0 | Adult emergence: Normal adults (Spodoptera litura [2]; 5 μg/Insect): 50 | Larval mortality (%) (Spodoptera litura [2]; 5 μg/Insect): 3% | Pupal Formation: Abnormal pupa (Spodoptera litura [2]; 5 μg/Insect): 24 | Pupal Formation: Normal pupa (Spodoptera litura [2]; 5 μg/Insect): 73 | Pupal Formation: Pupal Mortality (Spodoptera litura [2]; 5 μg/Insect): 3 | Adult emergence: Abnormal adults (Spodoptera litura [2]; 10 μg/Insect): 29 | Adult emergence: Intermediates (Spodoptera litura [2]; 10 μg/Insect): 4 | Adult emergence: Non-emergence (Spodoptera litura [2]; 10 μg/Insect): 1 | Adult emergence: Normal adults (Spodoptera litura [2]; 10 μg/Insect): 49 | Larval mortality (%) (Spodoptera litura [2]; 10 μg/Insect): 10% | Pupal Formation: Abnormal pupa (Spodoptera litura [2]; 10 μg/Insect): 32 | Pupal Formation: Normal pupa (Spodoptera litura [2]; 10 μg/Insect): 58 | Pupal Formation: Pupal Mortality (Spodoptera litura [2]; 10 μg/Insect): 8 | Adult emergence: Abnormal adults (Spodoptera litura [2]; 20 μg/Insect): 22 | Adult emergence: Intermediates (Spodoptera litura [2]; 20 μg/Insect): 8 | Adult emergence: Non-emergence (Spodoptera litura [2]; 20 μg/Insect): 0 | Adult emergence: Normal adults (Spodoptera litura [2]; 20 μg/Insect): 39 | Larval mortality (%) (Spodoptera litura [2]; 20 μg/Insect): 27% | Pupal Formation: Abnormal pupa (Spodoptera litura [2]; 20 μg/Insect): 30 | Pupal Formation: Normal pupa (Spodoptera litura [2]; 20 μg/Insect): 43 | Pupal Formation: Pupal Mortality (Spodoptera litura [2]; 20 μg/Insect): 4 | Adult emergence: Abnormal adults (Spodoptera litura [2]; 35 μg/Insect): 14 | Adult emergence: Intermediates (Spodoptera litura [2]; 35 μg/Insect): 6 | Adult emergence: Non-emergence (Spodoptera litura [2]; 35 μg/Insect): 0 | Adult emergence: Normal adults (Spodoptera litura [2]; 35 μg/Insect): 17 | Larval mortality (%) (Spodoptera litura [2]; 35 μg/Insect): 56% | Pupal Formation: Abnormal pupa (Spodoptera litura [2]; 35 μg/Insect): 19 | Pupal Formation: Normal pupa (Spodoptera litura [2]; 35 μg/Insect): 25 | Pupal Formation: Pupal Mortality (Spodoptera litura [2]; 35 μg/Insect): 7 | Adult emergence: Abnormal adults (Spodoptera litura [2]; 50 μg/Insect): 11 | Adult emergence: Intermediates (Spodoptera litura [2]; 50 μg/Insect): 5 | Adult emergence: Non-emergence (Spodoptera litura [2]; 50 μg/Insect): 4 | Adult emergence: Normal adults (Spodoptera litura [2]; 50 μg/Insect): 3 | Larval mortality (%) (Spodoptera litura [2]; 50 μg/Insect): 70% | Pupal Formation: Abnormal pupa (Spodoptera litura [2]; 50 μg/Insect): 15 | Pupal Formation: Normal pupa (Spodoptera litura [2]; 50 μg/Insect): 13 | Pupal Formation: Pupal Mortality (Spodoptera litura [2]; 50 μg/Insect): 9 | Adult emergence: Abnormal adults (Spodoptera litura [2]; 75 μg/Insect): 3 | Adult emergence: Intermediates (Spodoptera litura [2]; 75 μg/Insect): 1 | Adult emergence: Non-emergence (Spodoptera litura [2]; 75 μg/Insect): 2 | Adult emergence: Normal adults (Spodoptera litura [2]; 75 μg/Insect): 0 | Larval mortality (%) (Spodoptera litura [2]; 75 μg/Insect): 83% | Pupal Formation: Abnormal pupa (Spodoptera litura [2]; 75 μg/Insect): 8 | Pupal Formation: Normal pupa (Spodoptera litura [2]; 75 μg/Insect): 9 | Pupal Formation: Pupal Mortality (Spodoptera litura [2]; 75 μg/Insect): 13 | Adult emergence: Abnormal adults (Spodoptera litura [2]; 100 μg/Insect): 0 | Adult emergence: Intermediates (Spodoptera litura [2]; 100 μg/Insect): 0 | Adult emergence: Non-emergence (Spodoptera litura [2]; 100 μg/Insect): 0 | Adult emergence: Normal adults (Spodoptera litura [2]; 100 μg/Insect): 0 | Larval mortality (%) (Spodoptera litura [2]; 100 μg/Insect): 96% | Pupal Formation: Abnormal pupa (Spodoptera litura [2]; 100 μg/Insect): 4 | Pupal Formation: Normal pupa (Spodoptera litura [2]; 100 μg/Insect): 0 | Pupal Formation: Pupal Mortality (Spodoptera litura [2]; 100 μg/Insect): 4 | A.I. (Anti-feedent Index) (Spodoptera litura [3]; 10 μg/sq. cm.): 11.63 | Percent leaf consumption 12 hr (Spodoptera litura [3]; 10 μg/sq. cm.): 50.4% | Percent leaf consumption 24 hr (Spodoptera litura [3]; 10 μg/sq. cm.): 75.2% | A.I. (Anti-feedent Index) (Spodoptera litura [3]; 15 μg/sq. cm.): 16.07 | Percent leaf consumption 12 hr (Spodoptera litura [3]; 15 μg/sq. cm.): 33.24% | Percent leaf consumption 24 hr (Spodoptera litura [3]; 15 μg/sq. cm.): 68.7% | A.I. (Anti-feedent Index) (Spodoptera litura [3]; 20 μg/sq. cm.): 27.86 | Percent leaf consumption 12 hr (Spodoptera litura [3]; 20 μg/sq. cm.): 24.7% | Percent leaf consumption 24 hr (Spodoptera litura [3]; 20 μg/sq. cm.): 53.6% | A.I. (Anti-feedent Index) (Spodoptera litura [3]; 25 μg/sq. cm.): 48.67 | Percent leaf consumption 12 hr (Spodoptera litura [3]; 25 μg/sq. cm.): 12.5% | Percent leaf consumption 24 hr (Spodoptera litura [3]; 25 μg/sq. cm.): 32.8% | Concentration required for 50% leaf protection EC50 ± S.E. (Spodoptera litura [3]; late third instar): 19.65 ± 2.99 μg/cm^2 | LC50 ± S.E. (Aedes aegypti): 11.78 ± 2.35 µg/mL | LC50 ± S.E. [1]: 22.54 ± 3.26 µg/mL

m-Fluorobenzyl n-butylxanthate
LC50 ± S.E. (Aedes aegypti): 12.53 ± 1.24 µg/mL | LC50 ± S.E. [1]: 19.00 ± 2.83 µg/mL
